From patent publication US20140234252A1, “Composition and Methods for the Treatment of Degenerative Retinal Conditions” (The Provost, Fellows, Foundation Scholars, and the other …, priority 2011, published 2014)

Legend:
BMDMs = experiment: Cytokine ELISA in BMDMs primed with CEP-HSA or HSA and activated with ATP; assay type: cell-based, mouse; conditions: for IL-1β induction: WT versus TLR2-/- BMDMs primed; for IL-1β induction / IL-1β production: activated with ATP
Procedure: (§1) FIG. 2: CEP, a component of Drusen can prime the NLRP3 inflammasome: (a) Production of IL-1β in Human PBMC primed with LPS, CEP-adducted albumin (CEP-HSA) or HSA in increasing doses (50 and 100 μg ml^−1) and subsequently treated with 5 mM ATP. (b) IL-1β production in WT and Nlrp3^-/- BMDMs primed with CEP-HSA and then activated with either ATP or Poly(dAdT). (c, d) IL-1β and IL-6 production in WT or Tlr2^-/- BMDMs primed with HSA or CEP-HSA, activated with ATP or left un-treated. (e,f) IL-1β and TNFα production were measured in C3H/HeN BMDMs (WT) or C3H/HeJ BMDMs (which contain a mutant TLR4) primed with either LPS or CEP and activated with ATP. (g) Live cell imaging of immortalised BL6 BMDMs stably expressing YFP-ASC. Cells were primed for 3 h with CEP-HSA (top panel) or HSA (bottom panel) followed by treatment with 250 ng/ml Drusen for a further 2 hrs. Oligomerisation of ASC-YFP was observed by speck formation, original magnification ×60. All ELISA data are representative of a minimum of 3 separate experiments carried out in triplicate.
ELISA's were used to quantify cytokines in supernatants from the various experimental groups used throughout this study. IL-1β (RnD Systems), IL-18 (MBL International), IL-6 (RnD Systems), TNF-α (RnD Systems) and VEGF (RnD Systems) were analyzed throughout. All ELISA's were conducted a minimum of 3 times in triplicate. Inhibitors used during this study were added at the following highest concentrations 1 h prior to inflammasome activation: 1 μg/ml of caspase-1 inhibitor VI (Calbiochem), 5 μM cytochalasin D (Sigma Aldrich, Ireland), 10 μM CA-074 Me (cathepsin B inhibitor) (Sigma Aldrich, Ireland), 10 μM DPI (Sigma Aldrich, Ireland).
ARPE-19 cell line (ATCC CRL 2302) were obtained from LGC promochem, THP1 cells and primary isolated human peripheral blood mononuclear […] (PBMCs) were used for in vitro inflammasome activation assays. Cells were cultured at 37° C., 5% CO2, 95% air in a 1:1 mixture of Dulbecco's modified Eagle's medium (DMEM) and Ham's F12 medium with 1.2 g/L sodium bicarbonate, 2.5 mM L-glutamine, 15 mM HEPES, 0.5 mM sodium pyruvate (Sigma Aldrich) with 10% foetal calf serum (FCS). BMDCs and BMDMs were also isolated from WT, NLRP3-/-, TLR-2-/-, C3H/HeN and C3H/HeJ mice on a congenic C57/B16 background. BMDCs and BMDMs were stained with anti-CD11c-APC and anti-CD11b-PeCy7. Cells were gated on live single cells and expression of CD11c and CD11b was assesed by flow cytometry (FIG. 19). Mouse bEnd.3 microvascular endothelial cells were grown on fibronectin (Sigma Aldrich Ireland) coated tissue culture flasks in DMEM containing Glutamax and 10% FCS.

human PBMC = experiment: IL-1β ELISA in human PBMC primed with CEP-HSA or HSA and activated with ATP; assay type: cell-based; conditions: PBMCs primed with increasing concentrations (50 and 100 μg/ml), activated with ATP
Procedure: as §1
ELISA's were used to quantify cytokines in supernatants from the various experimental groups used throughout this study. IL-1β (RnD Systems), IL-18 (MBL International), IL-6 (RnD Systems), TNF-α (RnD Systems) and VEGF (RnD Systems) were analyzed throughout. All ELISA's were conducted a minimum of 3 times in triplicate. […]

Row | Substance | IL-1β induction (BMDMs) | IL-1β levels (human PBMC) | IL-1β production (BMDMs; C3H/HeJ BMDMs (mutant TLR4) primed) | IL-1β production (BMDMs; Nlrp3-/- BMDMs primed) | IL-1β production (BMDMs; WT BMDMs primed) | TNF-α (BMDMs; WT C3H/HeN BMDMs primed)
1 | HSA: Human Serum Albumin, unadducted control | no IL-1β induction was observed | no changes were observed |  |  |  | 
2 | CEP-HSA: Human Serum Albumin adducted with carboxyethyl pyrrole (CEP) | induced IL-1β increases in WT but not TLR2^-/- BMDMs | increased | produced IL-1β | not observed | produced IL-1β | but not CEP primed cells
